Source: patent US20220380348A1, “AXL INHIBITOR FORMULATIONS” (Sumitomo Dainippon Pharma Oncology, Inc., priority 2019, published 2022)

Assay: Pharmacokinetic testing of salt forms, oral dosing in rats (Example 5)
Type: in vivo
Details: fasted male Sprague-Dawley rats, mean values, dose mg/kg: Compound 1 18.2, Phosphate 14.3, Tartrate 18.7, Malate 18.6, Succinate 18.7, Benzenesulfonate 17.6

**Q.** Which Bioavailability does the source give for `CN1CCN(Cc2ccc(Nc3ncc(Cl)c(Nc4ccccc4S(=O)(=O)N(C)C)n3)cc2)CC1.O=C(O)C[C@H](O)C(=O)O` [Malate Salt] here?
**A.** Its Bioavailability is 37.3%.
